This is an account of results in publication PMC8906792, “Evidence for Paracrine Protective Role of Exogenous αA-Crystallin in Retinal Ganglion Cells” (eNeuro, 2022).

This data set concerns the molecule itself. The experiment in a line: native gel or EMSA; NativePAGE 3-12% Bis-Tris gel, 7.5 ug of recombinant protein per lane; oligomer profile from <480 to 1236 kDa, median size read against markers.

B1: recombinant wild-type human αA-crystallin (natural protein, UniProt P02489 1-173, looked up)
chain: MDVTIQHPWFKRTLGPFYPSRLFDQFFGEGLFEYDLLPFLSSTISPYYRQSLFRTVLDSGISEVRSDRDKFVIFLDVKHFSPEDLTVKVQDDFVEIHGKHNERQDDHGYISREFHRRYRLPSNVDQSALSCSLSADGMLTFCGPKIQTGLDATHAERAIPVSREEKPTSAPSS
notes: αA-crystallin, human, cDNA in pET23d+; Polydisperse oligomer; purification follows Horwitz et al., 1999; also called WT; αA-WT; source: E. coli BL21(DE3) pLysS, purified (size exclusion chromatography; endotoxin removed with Triton X-114)
Regarding B1, the binding result is “binds”.
